How the values were obtained:
Type in all cases: functional
Hep 3B2 [1] = test: Cell cycle arrest in human Hep3B cells assessed as accumulation at G0/G1 phase at 2.5 uM after 48 hrs by propidium iodide staining based flow cytometry (reference value: 39.7 to 40.4%)
Hep 3B2 [2] = test: Cell cycle arrest in human Hep3B cells assessed as accumulation at G2/M phase at 2.5 uM after 72 hrs by propidium iodide staining based flow cytometry (reference value: 28.7 to 32.3%)
Hep 3B2 [3] = test: Cell cycle arrest in human Hep3B cells assessed as accumulation at sub-G1 phase at 20 uM after 48 hrs by propidium iodide staining based flow cytometry (reference value: 1.5 to 6.5%)
Hep 3B2 [4] = test: Cell cycle arrest in human Hep3B cells assessed as accumulation at S phase at 2.5 uM after 48 hrs by propidium iodide staining based flow cytometry (reference value: 20.8 to 24%)
Hep 3B2 [5] = test: Cell cycle arrest in human Hep3B cells assessed as accumulation at G0/G1 phase at 2.5 uM after 72 hrs by propidium iodide staining based flow cytometry (reference value: 41.6 to 46.2%)
Hep 3B2 [6] = test: Cytotoxicity against human Hep3B cells at 20 uM after 24 hrs by MTT assay relative to control

## CNC(=O)c1cc(Oc2ccc(NC(=O)Nc3ccc(Cl)c(C(F)(F)F)c3)cc2)ccn1 [SORAFENIB]
Hep 3B2 [1]
  Activity: 44.1%
Hep 3B2 [2]
  Activity: 35.9%
Hep 3B2 [3]
  Activity: 43.3%
Hep 3B2 [4]
  Activity: 16.2%
Hep 3B2 [5]
  Activity: 43.8%
Hep 3B2 [6]
  Activity: 40.2%

From ChEMBL document CHEMBL4024707, “Using gene expression database to uncover biology functions of 1,4-disubstituted 1,2,3-triazole analogues synthesized via a copper (I)-catalyzed reaction” (Eur J Med Chem, 2017)
